Test results: ChEMBL document CHEMBL4364258, “Discovery of novel benzofuran-based compounds with neuroprotective and immunomodulatory properties for Alzheimer's disease treatment” (Eur J Med Chem, 2019)

Protein sequences, listed by entry. Tags and fused reporters are not part of them.
UniProt P21554, whole entry: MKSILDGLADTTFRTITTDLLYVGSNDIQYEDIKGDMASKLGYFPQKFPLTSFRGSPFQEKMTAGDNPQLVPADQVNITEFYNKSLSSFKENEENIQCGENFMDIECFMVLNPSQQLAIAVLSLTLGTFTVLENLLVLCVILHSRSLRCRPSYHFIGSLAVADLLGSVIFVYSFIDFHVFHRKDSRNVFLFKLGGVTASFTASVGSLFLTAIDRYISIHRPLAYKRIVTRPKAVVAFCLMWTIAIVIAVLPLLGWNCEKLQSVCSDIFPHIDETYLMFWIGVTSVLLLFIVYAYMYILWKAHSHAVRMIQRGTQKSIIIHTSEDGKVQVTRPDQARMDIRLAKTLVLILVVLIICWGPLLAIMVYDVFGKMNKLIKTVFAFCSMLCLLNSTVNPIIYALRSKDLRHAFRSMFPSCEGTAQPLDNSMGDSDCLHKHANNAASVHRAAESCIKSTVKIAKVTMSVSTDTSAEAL

Experiments:
Cannabinoid receptor 1 [1] = target: T1, Cannabinoid receptor 1 (Homo sapiens, UniProt P21554); experiment: Displacement of 3[H]-CP55940 from human recombinant CB1 receptor expressed in HEK293 cell membranes measured after 90 mins
Cannabinoid receptor 1 [2] = target: T1, Cannabinoid receptor 1; experiment: Displacement of 3[H]-CP55940 from human recombinant CB1 receptor expressed in HEK293 cell membranes measured after 90 mins by Cheng-Prusoff equation analysis

Structure (SMILES): Cc1ccc(Cn2nc(C(=O)N[C@@H]3C(C)(C)[C@@H]4CC[C@@]3(C)C4)cc2-c2ccc(Cl)c(C)c2)cc1
- IC50 (Cannabinoid receptor 1 [1]): 542 µM
- Ki (Cannabinoid receptor 1 [2]): 117 µM
